According to PubChem BioAssay AID493091 (Sanford-Burnham Center for Chemical Genomics, 2011):
Only a part is listed here, and it is no random draw. Active and inactive are the calls of the source.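 The calls were made as follows: active = inhibition above about 50% at 20 µM (limit read from the data); inactive = the rest.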

The chains behind the UniProt entries cited, without tags or fusion partners. Where a name states a change or a piece, a line headed by the entry shows the natural chain unless it says otherwise.
UniProt Q9GZU7: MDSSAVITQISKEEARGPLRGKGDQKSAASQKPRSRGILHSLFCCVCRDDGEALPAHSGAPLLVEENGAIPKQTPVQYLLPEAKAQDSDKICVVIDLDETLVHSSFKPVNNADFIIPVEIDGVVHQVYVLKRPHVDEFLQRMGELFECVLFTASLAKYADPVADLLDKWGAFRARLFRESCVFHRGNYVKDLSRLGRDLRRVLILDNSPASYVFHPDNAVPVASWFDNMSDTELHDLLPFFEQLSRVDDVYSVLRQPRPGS

Biological target: Carboxy-terminal domain RNA polymerase II polypeptide A small phosphatase 1 (Homo sapiens) (UniProt Q9GZU7)
Assay: Scp-1 phosphatase inhibitors, primary screen, biochemical, colorimetric, uHTS (AID 493091);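 also: plate controls were DMSO wells with enzyme for no effect and wells lacking enzyme for full effect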
Details: Recombinant Scp1, phosphopeptide, malachite green phosphate absorbance; at 20 µM; stronger effect = higher value
In short: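 Incubation: 45 min enzyme reaction at room temperature / System: truncated SCP-1 phosphatase (76-261aa) / Reagent: Phospho 17-mer peptide substrate / Buffer or medium: Acidic Tris acetate buffer with magnesium and detergent / Signal: absorbance at 630 nm / Doses: one concentration, 20 µM, with 1.0% DMSO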

| SMILES | inhibition |
| --- | --- |
| CC1CCN(C(=O)Oc2c(Cl)cc(Cl)c3cccnc23)CC1 | inactive: -0.09% |
| CC(C)=N/N=C(\N)N[N+](=O)[O-] | inactive: -4.48% |
| CN(C)C(=O)OCCc1n(C)cc[n+]1C | inactive: -4.15% |
| COc1ccc(C2=NCC(CBr)S2)cc1 (configuration not stated) | inactive: -1.73% |
| Cc1ccc(NP(=O)(Oc2ccccc2)Oc2ccccc2)nc1 | inactive: -3.89% |
| CCc1nc2c(n1)c1c(non1O)c1c2no[n+]1[O-] | inactive: -10.8% |
| O=[N+]([O-])c1cc([N+](=O)[O-])c(CCNc2ccccc2)c([N+](=O)[O-])c1 | inactive: -6.19% |
| O=[N+]([O-])c1cccc2n[nH]nc12 | inactive: -3.29% |
| CC(=O)N1C2C3N(C(C)=O)C1C1N(C(C)=O)C(C(N1C(C)=O)N3C(C)=O)N2C(C)=O | inactive: -6% |
| O=[N+]([O-])c1ncn(CCn2ncnc2[N+](=O)[O-])n1 | inactive: -2.22% |
| CC(C)(C)C(=O)NC(Sc1ccncn1)C(Cl)(Cl)Cl (configuration not stated) | inactive: 9.14% |
| O=C(O)CNc1ccc([As](=O)(O)O)cc1 | inactive: 5.21% |
| COC(=O)C1(C)COP(=O)(Nc2ccccc2)OC1 (configuration not stated) | inactive: -2.79% |
| O=[N+]([O-])c1cccc(NC2=NCC(CBr)S2)c1 (configuration not stated) | inactive: -11.4% |
| O=P1(N(CCCl)CCCl)OCCCS1 (configuration not stated) | inactive: -2.23% |
| O=C(Nc1cc([As](=O)(O)O)ccc1O)c1ccccc1 | inactive: 11.7% |
| Nc1cccc2ccc([As](=O)(O)O)cc12 | active: 66.8% |
| CCN(N=Nc1nonc1N)c1nonc1N | inactive: 0.21% |
| O=P(Nc1nc2ccc(Cl)cc2s1)(c1ccccc1)c1ccccc1 | inactive: -6.56% |

| SMILES | inhibition |
| --- | --- |
| CC(=O)Nc1ccc([As](=O)(O)O)cc1 | inactive: -7.13% |
| O=C(O)c1ccccc1[As](=O)(O)O | inactive: 1.45% |
| CCCC1OP(N)(=O)OCC1CC (configuration not stated) | inactive: -3.9% |
| Cc1cc(SC(NC(=O)c2ccc(F)cc2)C(Cl)(Cl)Cl)ncn1 (configuration not stated) | inactive: -4.56% |
| CCOP(=O)(Nc1ccccc1)OCC | inactive: -9.54% |
| Cc1ccc(NP(=O)(Oc2ccccc2F)Oc2ccccc2F)nc1 | inactive: 0.11% |
| CN(C(=O)Cc1ccc(Cl)c(Cl)c1)[C@H]1CCCC[C@@H]1N1CCCC1 | inactive: -6.29% |
| Oc1ccccc1CNc1ccccn1 | inactive: -2.05% |
| O=C(NC(Sc1ccncn1)C(Cl)(Cl)Cl)c1ccccc1 (configuration not stated) | inactive: -7.42% |
| Nc1cc(N)c2nonc2c1[N+](=O)[O-] | inactive: 30.8% |
| CC(C)CC(=O)NC(Sc1ccc(Cl)cc1)C(Cl)(Cl)Cl (configuration not stated) | inactive: -6.35% |
| CN(C(=O)Cc1ccc(Cl)c(Cl)c1)[C@H]1CCCC[C@H]1N1CCCC1 | inactive: -0.69% |
| Cc1ccc(N/C(=N/P(=O)(N2CCOCC2)N2CCOCC2)N2CCOCC2)cc1 | inactive: -4.09% |
| NC(=O)c1cc([N+](=O)[O-])cc([N+](=O)[O-])c1N | inactive: -8.1% |
| CN1CCCC(OC(=O)C(c2ccccc2)c2ccccc2)C1 (configuration not stated) | inactive: -7.59% |
| Clc1ccc(Cl)c(NC2=NCC(CBr)S2)c1 (configuration not stated) | inactive: -5.03% |
| COc1ccccc1OP(=O)(Nc1ccc(C)cn1)Oc1ccccc1OC | inactive: 1.45% |
| Cc1ccc(OP(=O)(Nc2nccs2)Oc2ccc(C)cc2)cc1 | inactive: -8.94% |
